{"source": "patent US5124253A", "about": "“Dry strip element for the electrochemical detection of theophylline” (Medisense, Inc., priority 1988, dated 1992)", "origin": "cited, not measured here", "conditions": "in vivo; cited from earlier work", "note": "Where “and” joins values, the source holds several entries; their conditions need not be identical. Identical values can stand only once."}
{"smiles": "Cn1c(=O)c2[nH]cnc2n(C)c1=O", "note": "[theophylline]", "values": [{"measurement": "therapeutic range", "result": "10-20 μg/ml and 55-110 μM"}]}
